Data published in US10450297B2, “Sulfonyl amide derivatives for the treatment of abnormal cell growth” (Pfizer, Inc., priority 2007, dated 2019).

Sequences of proteins named here, by UniProt entry; tags and fusion partners are left off. Residues count along the entry.
UniProt Q05397, 410-689: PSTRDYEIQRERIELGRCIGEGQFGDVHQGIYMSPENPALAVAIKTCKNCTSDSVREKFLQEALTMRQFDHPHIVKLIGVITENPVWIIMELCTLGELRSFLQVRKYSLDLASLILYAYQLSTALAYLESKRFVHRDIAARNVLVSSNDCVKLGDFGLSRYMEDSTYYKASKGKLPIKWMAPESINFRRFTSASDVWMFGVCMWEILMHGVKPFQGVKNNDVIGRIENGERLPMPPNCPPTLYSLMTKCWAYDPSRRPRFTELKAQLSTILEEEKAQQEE

Molecular target: FAK kinase (catalytic construct FAK(410-689)) (Homo sapiens (Human), UniProt Q05397)
Test: FAKcd kinase ELISA (inhibition of poly-glu-tyr phosphorylation by FAK(410-689))
Type: biochemical
Conditions: 50 μM final ATP
Protocol: A. In-Vitro Activity of FAK:
The assay protocol has three parts:
3. […] 4. […] 5. […] 6. […] 7. […] 9. […] 10. […] 12. […] 13. […] 14. Aliquot the FAKcd protein and store frozen at −80° C. II. FAK Activation 1. […] At t120 (t=120 minutes), add 10 μl of 150 mM ATP. […] Add 180 μl aliquots of the desalted material to NiNTA spin column and incubate on spin column 4. […] FAKcd Kinase ELISA 1. Coat 96-well Nunc MaxiSorp plates with poly-glu-tyr (pGT) at […]: Prepare 10 μg/ml of pGT in PBS and aliquot 100 μl/well. Incubate the plates at 37° C. overnight, aspirate the supernatant, wash the plates 3 times with Wash Buffer, and flick to dry before storing at 4° C. 2. Prepare compound stock solutions of 2.5 mM in 100% DMSO. The stocks are subsequently diluted to 60× of the final concentration in 100% DMSO, and diluted 1:5 in Kinase Phosphorylation Buffer. 3. […] Add 80 μl to each well for a final ATP concentration of 50 μM. 4. […] Note: Linearity and the appropriate dilution must be pre-determined for each batch of protein. The enzyme concentration selected should be such that quantitation of the assay signal will be approximately 0.8-1.0 at OD450, and in the linear range of the reaction rate. […] The signal is quantitated by measurement of absorbance at 450 nm on the BioRad ricroplate reader or a microplate reader capable of reading at OD450. […] Inhibition of tyrosine kinase activity would result in a reduced absorbance signal. […]

IC50: 5.84 nM
Compound: CN(c1ncccc1CNc1nc(Nc2cccc(C(=O)NC3CCCCC3)c2)ncc1C(F)(F)F)S(C)(=O)=O [Compound 187, N-cyclohexyl-3-({4-[({2-[methyl(methylsulfonyl)amino]pyridin-3-yl}methyl)amino]-5-(trifluoromethyl)pyrimidin-2-yl}amino)benzamide]
